Assay results from patent US12459974B2, “Bicyclic peptide ligands specific for Nectin-4” (priority 2018, dated 2025).

Experiments:
[1] = biological target: T1, human Nectin-4 (Homo sapiens, UniProt Q96NY8); experiment: Nectin-4 competition binding assay (fluorescence polarisation); conditions: competition with fluorescent peptide SEQ ID NO: 217
T1 sequence (Q96NY8 32-510): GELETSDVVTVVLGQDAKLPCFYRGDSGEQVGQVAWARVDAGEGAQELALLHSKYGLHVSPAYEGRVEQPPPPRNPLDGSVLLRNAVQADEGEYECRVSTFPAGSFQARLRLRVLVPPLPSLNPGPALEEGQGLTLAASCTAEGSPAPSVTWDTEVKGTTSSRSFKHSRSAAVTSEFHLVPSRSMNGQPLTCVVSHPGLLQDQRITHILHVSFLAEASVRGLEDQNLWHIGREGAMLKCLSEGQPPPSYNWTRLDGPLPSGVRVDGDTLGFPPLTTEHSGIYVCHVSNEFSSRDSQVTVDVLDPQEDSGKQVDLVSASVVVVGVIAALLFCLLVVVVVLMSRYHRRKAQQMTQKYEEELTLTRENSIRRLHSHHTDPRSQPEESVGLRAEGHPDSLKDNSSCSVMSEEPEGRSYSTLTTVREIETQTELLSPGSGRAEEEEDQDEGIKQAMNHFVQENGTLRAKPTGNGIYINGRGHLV
Description: Peptides were diluted to an appropriate concentration in assay buffer as described in the direct binding assay with a maximum of 5% DMSO, then serially diluted 1 in 2. Five μL of diluted peptide was added to the plate followed by 10 μL of human Nectin-4, then 10 μL fluorescent peptide added. Measurements were conducted as for the direct binding assay, however the gain was determined prior to the first measurement. Data analysis was in Systat Sigmaplot version 12.0 where the mP values were fit to a user defined cubic equation to generate a Ki value: • f=ymin+(ymax−ymin)/Lig*((Lig*((2*((Klig+Kcomp+Lig+Comp-Prot*c)^2-3*(Kcomp*(Lig-Prot*c)+Klig*(Comp-Prot*c)+Klig*Kcomp))^0.5*COS(ARCCOS((−2*(Klig+Kcomp+Lig+Comp-Prot*c)^3+9*(Klig+Kcomp+Lig+Comp-Prot*c)*(Kcomp*(Lig-Prot*c)+Klig*(Comp-Prot*c)+Klig*Kcomp)−27*(−1*Klig*Kcomp*Prot*c)/(2*((((Klig+Kcomp+Lig+Comp-Prot*c)^2−3*(Kcomp*(Lig-Prot*c)+Klig*(Comp-Prot*c)+Klig*Kcomp))^3)^0.5)))/3))−(Klig+Kcomp+Lig+Comp-Prot*c)))/((3*Klig)+((2*((Klig+Kcomp+Lig+Comp-Prot*c)^2−3*(Kcomp*(Lig-Prot*c)+Klig*(Comp-Prot*c)+Klig*Kcomp))^0.5*COS (ARCCOS ((−2*(Klig+Kcomp+Lig+Comp-Prot*c)^3+9*(Klig+Kcomp+Lig+Comp-Prot*c)*(Kcomp*(Lig-Prot*c)+Klig*(Comp-Prot*c)+Klig*Kcomp)-27*(−1*Klig*Kcomp*Prot*c))/(2*((((Klig+Kcomp+Lig+Comp-Prot*c)^2-3*(Kcomp*(Lig-Prot*c)+Klig*(Comp-Prot+c)+Klig*Kcomp))^3)^0.5))/3)−(Klig+Kcomp+Lig+Comp-Prot*c)))).
“Lig”, “KLig” and “Prot” were all defined values relating to: fluorescent peptide concentration, the Kd of the fluorescent peptide and Nectin concentration respectively.

[2] = biological target: T1, human Nectin-4; experiment: Nectin-4 direct binding assay (fluorescence polarisation)
Description: Affinity of the peptides of the invention for human Nectin-4 (Ki) was determined using a fluorescence polarisation assay, in accordance with the methods disclosed in WO 2016/067035. Peptides of the invention with a fluorescent tag (either fluorescein, SIGMA or Alexa Fluor488™, Fisher Scientific) were diluted to 2.5 nM in PBS with 0.01% tween 20 or 50 mM HEPES with 100 mM NaCl and 0.01% tween pH 7.4 (both referred to as assay buffer). This was combined with a titration of protein in the same assay buffer as the peptide to give 1 nM peptide in a total volume of 25 μL in a black walled and bottomed low bind low volume 384 well plates, typically 5 μL assay buffer, 10 μL protein then 10 μL fluorescent peptide. […] Measurements were conducted on a BMG PHERAstar FS equipped with an “FP 485 520 520” optic module which excites at 485 nm and detects parallel and perpendicular emission at 520 nm. The PHERAstar FS was set at 25° C. with 200 flashes per well and a positioning delay of 0.1 second, with each well measured at 5 to 10 minute intervals for 60 minutes. The gain used for analysis was determined for each tracer at the end of the 60 minutes where there was no protein in the well. Data was analysed using Systat Sigmaplot version 12.0. mP values were fit to a user defined quadratic equation to generate a Kd value: f=ymin+(ymax−ymin)/Lig*((x+Lig+Kd)/2-sqrt((((x+Lig+Kd)/2)^2)−(Lig*x))). […]

[3] = biological target: T2, human Nectin-4 (Homo sapiens, UniProt Q96NY8); experiment: Nectin-4 Biacore SPR binding assay; conditions: read-out: Human SPR Kd; peptide ligands (Table 3)
T2 sequence (Q96NY8 32-349): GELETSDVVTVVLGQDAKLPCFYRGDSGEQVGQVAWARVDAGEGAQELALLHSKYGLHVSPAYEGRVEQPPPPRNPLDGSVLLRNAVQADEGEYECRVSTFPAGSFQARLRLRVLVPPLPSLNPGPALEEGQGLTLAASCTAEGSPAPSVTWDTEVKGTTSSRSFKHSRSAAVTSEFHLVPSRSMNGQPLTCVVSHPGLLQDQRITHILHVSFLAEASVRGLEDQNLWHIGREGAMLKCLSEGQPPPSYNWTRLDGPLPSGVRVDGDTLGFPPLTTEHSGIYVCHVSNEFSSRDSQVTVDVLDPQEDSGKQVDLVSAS

Compound	Ki ([1]; read-out: Ki) [nM]	other results
CC[C@H](C)[C@@H]1NC(=O)[C@@H]2CCCN2C(=O)[C@H](Cc2c[nH]c3ccccc23)NC(=O)[C@H](CO)NC(=O)[C@H](Cc2c[nH]c3ccccc23)NC(=O)[C@H](CC(N)=O)NC(=O)[C@H](CCCCN)NC(=O)[C@H](CCSC)NC(=O)[C@@H]2CSCCC(=O)N3CN(CN(C3)C(=O)CCSC[C@H](NC(=O)[C@H](C)N)C(=O)N3CCC[C@H]3C(=O)N[C@@H](Cc3ccccc3)C(=O)NCC(=O)N2)C(=O)CCSC[C@@H](C(=O)N[C@H](C(=O)N[C@H](C)C(=O)N[C@@H](CCCCN)C(N)=O)[C@@H](C)O)NC(=O)[C@H](Cc2c[nH]c3ccccc23)NC1=O [BCY7368, A-(SEQ ID NO: 1)-T[dA]K]	23	–
CC[C@H](C)[C@@H]1NC(=O)[C@H](CCCNC(=N)N)NC(=O)[C@H](CC(N)=O)NC(=O)[C@@H]2CSCCC(=O)N3CN(CN(C3)C(=O)CCSC[C@H](NC(=O)[C@H](Cc3c[nH]c4ccccc34)NC(=O)[C@H](CCCCN)NC(=O)[C@H](CCC(N)=O)NC(C)=O)C(=O)N[C@@H](C)C(=O)N3CCC[C@H]3C(=O)N[C@@H](CC(C)C)C(=O)N[C@@H](CO)C(=O)N[C@@H](C)C(=O)N[C@@H](Cc3ccc(O)cc3)C(=O)N[C@@H](Cc3c[nH]c4ccccc34)C(=O)N2)C(=O)CCSC[C@@H](C(N)=O)NC1=O [BCY7628, Ac-QKW-(SEQ ID NO: 105)]	23	–
(MeO-dPEG12) (PEG3) (PEG3) (SEQ ID NO: 115) [BCY8094]	28.9	–
(MeO-dPEG12) (SEQ ID NO: 115) [BCY8087]	17.9	–
(PEG3) (PEG3) (SEQ ID NO: 115) [BCY7815]	32	–
ACPFGCHTDWSWPIWCA-Sar6-K(FI) [reference compound]	–	Kd ([2]; fluorescent tracer peptide of the competition assay): 5 nM
Ac-(SEQ ID NO: 11) [BCY7657]	23.2	–
Ac-(SEQ ID NO: 60) [BCY7616]	51	–
Ac-(SEQ ID NO: 73) [BCY7535]	64	–
Ac-(SEQ ID NO: 75) [BCY7541]	76.5	–
Ac-(SEQ ID NO: 78) [BCY7580]	13.5	–
Ac-(SEQ ID NO: 79) [BCY7581]	19.4	–
Ac-(SEQ ID NO: 82) [BCY7585]	18.5	–
Ac-(SEQ ID NO: 83) [BCY7588]	–	Ki [1]: 342 nM
Ac-(SEQ ID NO: 93) [BCY7598]	–	Ki [1]: 74.9 nM
Ac-(SEQ ID NO: 100) [BCY7615]	28.4	–
Ac-(SEQ ID NO: 112) [BCY7664]	70	–
Ac-(SEQ ID NO: 114) [BCY7668]	424	–
Ac-(SEQ ID NO: 115) [BCY7765]	8.7	Kd [3]: 24.9 nM
Ac-(SEQ ID NO: 116) (MeO-dPEG12) linked to D-Lys6 [BCY8084]	26.4	–
Ac-(SEQ ID NO: 116) [BCY7816]	36	–
Ac-(SEQ ID NO: 117) [BCY7817]	14	–

Compound	Ki ([1]; read-out: Ki) [nM]	other results
Ac-(SEQ ID NO: 119) (MeO-dPEG12) linked to Lys5 [BCY8088]	8.9	–
Ac-(SEQ ID NO: 120) (MeO-dPEG12) linked to D-Lys3 [BCY8089]	8	–
Ac-(SEQ ID NO: 121) (MeO-dPEG12) linked to Lys4 [BCY8090]	57	–
Ac-(SEQ ID NO: 122) (MeO-dPEG12) linked to Lys6 [BCY8091]	23	–
Ac-(SEQ ID NO: 131) [BCY7889]	58.1	–
Ac-(SEQ ID NO: 132) [BCY7890]	98.9	–
Ac-(SEQ ID NO: 135) [BCY7894]	126	–
Ac-(SEQ ID NO: 136) [BCY7895]	49.1	–
Ac-(SEQ ID NO: 137) [BCY7896]	44	–
Ac-(SEQ ID NO: 138) [BCY7897]	–	Ki [1]: 166 nM
Ac-(SEQ ID NO: 139) [BCY7902]	4	–
Ac-(SEQ ID NO: 141) [BCY7904]	8	–
Ac-(SEQ ID NO: 142) [BCY7906]	6	–
Ac-(SEQ ID NO: 145) [BCY7911]	13	–
Ac-(SEQ ID NO: 147) [BCY7913]	16	–
Ac-(SEQ ID NO: 149) [BCY7915]	20	–
Ac-(SEQ ID NO: 150) [BCY7916]	45	–
Ac-(SEQ ID NO: 164) [BCY8042]	20.4	–
Ac-(SEQ ID NO: 165) [BCY8043]	8.8	–
Ac-(SEQ ID NO: 211) [BCY8831]	–	Kd [3]: 2.14 nM
Ac-[dD][dD][dD]-(SEQ ID NO: 115) [BCY8029]	77.8	–
FI-A-(SQ ID NO: 1)-A [80-09-02-N006]	–	Ki ([2]; direct binding, fluorescently tagged peptide, TATA scaffold): 5 nM
